Measurements from ChEMBL document CHEMBL5131376, “Kinase Inhibitors as Underexplored Antiviral Agents” (J Med Chem, 2022).

Target: T1, Cyclin-G-associated kinase (Homo sapiens, UniProt O14976)
T1 sequence (O14976 whole entry): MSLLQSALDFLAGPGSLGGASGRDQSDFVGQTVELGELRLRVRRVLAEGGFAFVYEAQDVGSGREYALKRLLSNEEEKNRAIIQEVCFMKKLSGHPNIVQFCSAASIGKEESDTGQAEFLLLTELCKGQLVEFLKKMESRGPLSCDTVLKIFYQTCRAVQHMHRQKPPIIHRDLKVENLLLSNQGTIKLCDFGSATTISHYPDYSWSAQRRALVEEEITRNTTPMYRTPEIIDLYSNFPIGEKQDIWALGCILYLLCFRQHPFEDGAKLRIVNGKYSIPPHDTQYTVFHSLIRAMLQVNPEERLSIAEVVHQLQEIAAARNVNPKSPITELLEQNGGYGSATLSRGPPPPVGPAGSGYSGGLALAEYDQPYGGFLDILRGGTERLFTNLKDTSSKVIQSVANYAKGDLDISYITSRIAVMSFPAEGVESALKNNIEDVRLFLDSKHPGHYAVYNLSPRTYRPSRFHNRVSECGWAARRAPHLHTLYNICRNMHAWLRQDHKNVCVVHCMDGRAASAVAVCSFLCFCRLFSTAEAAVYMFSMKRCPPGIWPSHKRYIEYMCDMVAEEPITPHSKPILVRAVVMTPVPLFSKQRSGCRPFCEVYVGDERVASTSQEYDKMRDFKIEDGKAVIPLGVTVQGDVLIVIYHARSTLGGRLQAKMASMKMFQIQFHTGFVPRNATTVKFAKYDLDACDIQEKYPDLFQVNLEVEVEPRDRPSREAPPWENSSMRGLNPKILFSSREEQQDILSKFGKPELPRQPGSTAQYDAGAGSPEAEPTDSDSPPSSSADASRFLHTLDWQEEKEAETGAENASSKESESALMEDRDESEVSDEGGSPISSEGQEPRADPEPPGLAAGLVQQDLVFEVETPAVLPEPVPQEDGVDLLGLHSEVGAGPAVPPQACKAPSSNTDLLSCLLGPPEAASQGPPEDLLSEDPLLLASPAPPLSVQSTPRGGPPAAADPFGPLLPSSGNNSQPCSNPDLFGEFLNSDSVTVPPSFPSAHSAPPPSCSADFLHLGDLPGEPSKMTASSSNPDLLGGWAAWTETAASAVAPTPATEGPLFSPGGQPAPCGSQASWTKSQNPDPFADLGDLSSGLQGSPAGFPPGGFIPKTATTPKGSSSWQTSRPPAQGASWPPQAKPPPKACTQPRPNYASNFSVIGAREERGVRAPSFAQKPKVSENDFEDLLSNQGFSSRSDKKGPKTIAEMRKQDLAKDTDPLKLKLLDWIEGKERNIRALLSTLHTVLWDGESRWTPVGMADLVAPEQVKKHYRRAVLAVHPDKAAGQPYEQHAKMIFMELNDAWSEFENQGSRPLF
Experiment: Binding affinity to GAK (unknown origin) assessed as dissociation constant

Kd: 3.1 nM
Compound: COc1cc(Nc2ccnc3ccc(Br)cc23)cc(OC)c1OC
